From US11407757B2

The compounds below were run on Gas6 ligand induced AKT phosphorylation (assay: Gas6 ligand induced AKT phosphorylation, western blotting in H1299 NSCLC cells). Conditions: Homo sapiens, NCI-H1299, read-out: inhibition activity against Gas6 ligand induced AKT phosphorylation.
Format: cell-based
Description: The potent compounds selected in EXAMPLE 2 were tested in Gas6 ligand induced AKT phosphorylation via western blotting assay. For western blotting experiments, H1299 NSCLC cells were cultured in serum free RPMI-1640 medium and culture overnight. On the assay day, two hundred thousand cells were pretreated with compound for 2 hours in 6-well plate, then stimulated by 100 ng/mL Gas6 ligand for 30 mins. Whole cell lysate was harvested by adding 2×SDS Sample Buffer. Proteins were separated by SDS-PAGE electrophoresis and transfer to PVDF membrane. Protein expression was detected using immunoblot with various primary antibodies and secondary antibodies following standard protocol. Antibody against p-AKT (Ser473) and anti-rabbit IgG, HRP-linked secondary antibodies were purchased from Cell Signaling Technology. Antibody against actin was purchased from Millipore. […] Band intensity of western blot was also quantified by ChemiDoc MP Imaging System. Relative intensity of bands corresponding to drug treatment were compared to the ligand alone group. The percentage (%) inhibition at each drug concentration was calculated using the formula: Percentage (%) inhibition=(1−Relative intensity)×100.
Work on COc1nc(Nc2ccc(CN3CCC(C)CC3)cc2)nc2[nH]cc(-c3ccc(S(=O)(=O)N(C)C)cc3)c12 [Compound 5] yielded an inhibition at 0.1 µM greater than 50%. In the case of CCN1CCN(Cc2ccc(Nc3nc(OCCOC)c4c(-c5ccc(OCc6ccccn6)cc5F)c[nH]c4n3)cc2)CC1 [Compound 19, N-(4-((4-ethylpiperazin-1-yl)methyl)phenyl)-5-(2-fluoro-4-(pyridin-2-ylmethoxy)phenyl)-4-(2-methoxyethoxy)-7H-pyrrolo[2,3-d]pyrimidin-2-amine], the inhibition at 0.1 µM is reported as greater than 50%. Compound COc1nc(Nc2ccc(CN3CCN(C)CC3)cc2)nc2[nH]cc(-c3ccc(F)cc3F)c12 [Compound 25] has an inhibition at 0.1 µM greater than 50%. For COCCOc1nc(Nc2ccc(CN3CCC(C)CC3)cc2)nc2[nH]cc(-c3ccc(OCc4ncccn4)cc3F)c12 [Compound 34], the inhibition at 0.1 µM was greater than 50%. In the case of CCN1CCN(Cc2ccc(Nc3nc(OCCOC)c4c(-c5ccc(OCc6ncccn6)cc5F)c[nH]c4n3)cc2)CC1 [Compound 39], the inhibition at 0.1 µM is reported as greater than 50%. COCCOc1nc(Nc2ccc(CN3CCN(C)CC3)cc2)nc2[nH]cc(-c3ccc(F)c(Cl)c3)c12 [Compound 50] showed an inhibition at 0.1 µM greater than 50%. CN1CCN(Cc2ccc(Nc3nc(OCC4CCCO4)c4c(-c5ccc(F)cc5F)c[nH]c4n3)cc2)CC1 (stereo not shown) [Compound 52] showed an inhibition at 0.1 µM greater than 50%. Work on COCCOc1nc(Nc2ccc(CN3CCN(C)CC3)cc2)nc2[nH]cc(-c3ccc(F)cc3F)c12 [Compound 53] yielded an inhibition at 0.1 µM greater than 50%. COCCOc1nc(Nc2ccc(CN3CCN(C)CC3)cc2)nc2[nH]cc(-c3ccc4nc(C)oc4c3)c12 [Compound 64] was tested, and the inhibition at 0.1 µM was greater than 50%. COCCOc1nc(Nc2ccc(CN3CCN(C)CC3)cc2)nc2[nH]cc(-c3ccc(OCn4ccccc4=O)cc3F)c12 [Compound 68] showed an inhibition at 0.1 µM greater than 50%. CN1CCN(Cc2ccc(Nc3nc(NC4CCOCC4)c4c(-c5ccc(F)cc5F)c[nH]c4n3)cc2)CC1 [Compound 75, 5-(2,4-difluorophenyl)-N2-(4-((4-methylpiperazin-1-yl)methyl)phenyl)-N4-(tetrahydro-2H-pyran-4-yl)-7H-pyrrolo[2,3-d]pyrimidine-2,4-diamine] showed an inhibition at 0.1 µM greater than 50%. For COCCOc1nc(Nc2ccc(CN3CCN(C)CC3)cc2)nc2[nH]cc(-c3ccc(S(=O)(=O)N(C)C)cc3)c12 [Compound 79], the inhibition at 0.1 µM was greater than 50%. Work on COCCOc1nc(Nc2ccc(CN3CCN(C)CC3)cc2)nc2[nH]cc(-c3ccc(OCc4ncccn4)cc3F)c12 [Compound 107] yielded an inhibition at 0.1 µM greater than 50%.
